This is an account of results in PMC4900556, “Connexin43 Forms Supramolecular Complexes through Non-Overlapping Binding Sites for Drebrin, Tubulin, and ZO-1” (PLoS ONE, 2016).

This test addresses F-actin (rabbit skeletal muscle actin) (rabbit), P68135. The test can be described thus: co-IP; anti-actin antibody on protein A agarose beads captures purified F-actin as bait; one GST-tagged prey added; 1% BSA in 1X PBS, overnight; Western blot with rabbit anti-GST; control without bait. The conditions noted are these: remark: other sources report otherwise. (A western blot detects proteins with antibodies after separation by electrophoresis.)

B1: Drebrin A 1–300 (Drb^1-300), untagged (domain or fragment, UniProt Q9QXS6 1-300, looked up)
chain: MAGVSFSGHRLELLAAYEEVIREESAADWALYTYEDGSDDLKLAASGEGGLQELSGHFENQKVMYGFCSVKDSQAALPKYVLINWVGEDVPDARKCACASHVAKVAEFFQGVDVIVNASSVEDIDAGAIGQRLSNGLARLSSPVLHRLRLREDENAEPVGTTYQKTDAAVEMKRINREQFWEQAKKEEELRKEEERKKALDARLRFEQERMEQERQEQEERERRYREREQQIEEHRRKQQSLEAEEAKRRLKEQSIFGDQRDEEEESQMKKSESEVEEAAAIIAQRPDNPREFFRQQERV
notes: Drebrin A residues 1-300; also called drebrin amino acids 1–300; N-terminal fragment of drebrin; source: E. coli Rosetta cells, purified on glutathione-agarose column, GST tag digested and captured with a Thrombin kit
Molecule B1 had a fold of band density with F-actin over beads without F-actin of 2.5 fold.
